Measured values taken from publication PMC12102759 (Protein Science : A Publication of the Protein Society, 2025).

tested on: YES SH3; format: binding, human

Sequence	PSSM value of the single amino acid variant (DMS by phage display)
TSSIQSRPLPSPPKFT F15A (TSSIQSRPLPSPPKAT)	0.01991
TSSIQSRPLPSPPKFT F15D (TSSIQSRPLPSPPKDT)	0
TSSIQSRPLPSPPKFT F15E (TSSIQSRPLPSPPKET)	0.04763
TSSIQSRPLPSPPKFT F15F	0.04241
TSSIQSRPLPSPPKFT F15G (TSSIQSRPLPSPPKGT)	0.03508
TSSIQSRPLPSPPKFT F15H (TSSIQSRPLPSPPKHT)	0.01814
TSSIQSRPLPSPPKFT F15I (TSSIQSRPLPSPPKIT)	0.06266
TSSIQSRPLPSPPKFT F15K (TSSIQSRPLPSPPKKT)	0.005907
TSSIQSRPLPSPPKFT F15L (TSSIQSRPLPSPPKLT)	0.02724
TSSIQSRPLPSPPKFT F15M (TSSIQSRPLPSPPKMT)	0.4794
TSSIQSRPLPSPPKFT F15N (TSSIQSRPLPSPPKNT)	0.01201
TSSIQSRPLPSPPKFT F15P (TSSIQSRPLPSPPKPT)	0.1419
TSSIQSRPLPSPPKFT F15Q (TSSIQSRPLPSPPKQT)	0.009042
TSSIQSRPLPSPPKFT F15R (TSSIQSRPLPSPPKRT)	0.01536
TSSIQSRPLPSPPKFT F15S (TSSIQSRPLPSPPKST)	0
TSSIQSRPLPSPPKFT F15T (TSSIQSRPLPSPPKTT)	0.001679
TSSIQSRPLPSPPKFT F15V (TSSIQSRPLPSPPKVT)	0.0361
TSSIQSRPLPSPPKFT F15W (TSSIQSRPLPSPPKWT)	0.03019
TSSIQSRPLPSPPKFT F15Y (TSSIQSRPLPSPPKYT)	0.01537
TSSIQSRPLPSPPKFT I4A (TSSAQSRPLPSPPKFT)	0.05992
TSSIQSRPLPSPPKFT I4D (TSSDQSRPLPSPPKFT)	0.01426
TSSIQSRPLPSPPKFT I4E (TSSEQSRPLPSPPKFT)	0.05255
TSSIQSRPLPSPPKFT I4F (TSSFQSRPLPSPPKFT)	0.0116

Sequence	PSSM value of the single amino acid variant (DMS by phage display)
TSSIQSRPLPSPPKFT I4G (TSSGQSRPLPSPPKFT)	0.04896
TSSIQSRPLPSPPKFT I4H (TSSHQSRPLPSPPKFT)	0.03323
TSSIQSRPLPSPPKFT I4I	0.05653
TSSIQSRPLPSPPKFT I4K (TSSKQSRPLPSPPKFT)	0.05417
TSSIQSRPLPSPPKFT I4L (TSSLQSRPLPSPPKFT)	0.01916
TSSIQSRPLPSPPKFT I4M (TSSMQSRPLPSPPKFT)	0.005742
TSSIQSRPLPSPPKFT I4N (TSSNQSRPLPSPPKFT)	0.02291
TSSIQSRPLPSPPKFT I4P (TSSPQSRPLPSPPKFT)	0.2275
TSSIQSRPLPSPPKFT I4Q (TSSQQSRPLPSPPKFT)	0.03082
TSSIQSRPLPSPPKFT I4R (TSSRQSRPLPSPPKFT)	0.004571
TSSIQSRPLPSPPKFT I4S (TSSSQSRPLPSPPKFT)	0.1384
TSSIQSRPLPSPPKFT I4T (TSSTQSRPLPSPPKFT)	0.1326
TSSIQSRPLPSPPKFT I4V (TSSVQSRPLPSPPKFT)	0.0204
TSSIQSRPLPSPPKFT I4W (TSSWQSRPLPSPPKFT)	0.06569
TSSIQSRPLPSPPKFT I4Y (TSSYQSRPLPSPPKFT)	0.0009824
TSSIQSRPLPSPPKFT K14A (TSSIQSRPLPSPPAFT)	0.02167
TSSIQSRPLPSPPKFT K14D (TSSIQSRPLPSPPDFT)	0.05842
TSSIQSRPLPSPPKFT K14E (TSSIQSRPLPSPPEFT)	0.02138
TSSIQSRPLPSPPKFT K14F (TSSIQSRPLPSPPFFT)	0.01106
TSSIQSRPLPSPPKFT K14G (TSSIQSRPLPSPPGFT)	0.0198
TSSIQSRPLPSPPKFT K14H (TSSIQSRPLPSPPHFT)	0.1187
TSSIQSRPLPSPPKFT K14I (TSSIQSRPLPSPPIFT)	0.1182
TSSIQSRPLPSPPKFT K14K	0.007071

Sequence	PSSM value of the single amino acid variant (DMS by phage display)
TSSIQSRPLPSPPKFT K14L (TSSIQSRPLPSPPLFT)	0.09563
TSSIQSRPLPSPPKFT K14M (TSSIQSRPLPSPPMFT)	0.1324
TSSIQSRPLPSPPKFT K14N (TSSIQSRPLPSPPNFT)	0.01714
TSSIQSRPLPSPPKFT K14P (TSSIQSRPLPSPPPFT)	0.01361
TSSIQSRPLPSPPKFT K14Q (TSSIQSRPLPSPPQFT)	0.008096
TSSIQSRPLPSPPKFT K14R (TSSIQSRPLPSPPRFT)	0.01492
TSSIQSRPLPSPPKFT K14S (TSSIQSRPLPSPPSFT)	0.09233
TSSIQSRPLPSPPKFT K14T (TSSIQSRPLPSPPTFT)	0.09645
TSSIQSRPLPSPPKFT K14V (TSSIQSRPLPSPPVFT)	0.09876
TSSIQSRPLPSPPKFT K14W (TSSIQSRPLPSPPWFT)	0.01378
TSSIQSRPLPSPPKFT K14Y (TSSIQSRPLPSPPYFT)	0.04051
TSSIQSRPLPSPPKFT L9A (TSSIQSRPAPSPPKFT)	0.0126
TSSIQSRPLPSPPKFT L9D (TSSIQSRPDPSPPKFT)	0
TSSIQSRPLPSPPKFT L9E (TSSIQSRPEPSPPKFT)	0
TSSIQSRPLPSPPKFT L9F (TSSIQSRPFPSPPKFT)	0
TSSIQSRPLPSPPKFT L9G (TSSIQSRPGPSPPKFT)	0
TSSIQSRPLPSPPKFT L9H (TSSIQSRPHPSPPKFT)	0
TSSIQSRPLPSPPKFT L9I (TSSIQSRPIPSPPKFT)	0.2099
TSSIQSRPLPSPPKFT L9K (TSSIQSRPKPSPPKFT)	0.01436
TSSIQSRPLPSPPKFT L9L	0.3626
TSSIQSRPLPSPPKFT L9M (TSSIQSRPMPSPPKFT)	0.2832
TSSIQSRPLPSPPKFT L9N (TSSIQSRPNPSPPKFT)	0
TSSIQSRPLPSPPKFT L9P (TSSIQSRPPPSPPKFT)	0

Sequence	PSSM value of the single amino acid variant (DMS by phage display)
TSSIQSRPLPSPPKFT L9Q (TSSIQSRPQPSPPKFT)	0
TSSIQSRPLPSPPKFT L9R (TSSIQSRPRPSPPKFT)	0
TSSIQSRPLPSPPKFT L9S (TSSIQSRPSPSPPKFT)	0.01833
TSSIQSRPLPSPPKFT L9T (TSSIQSRPTPSPPKFT)	0
TSSIQSRPLPSPPKFT L9V (TSSIQSRPVPSPPKFT)	0.09901
TSSIQSRPLPSPPKFT L9W (TSSIQSRPWPSPPKFT)	0
TSSIQSRPLPSPPKFT L9Y (TSSIQSRPYPSPPKFT)	0
TSSIQSRPLPSPPKFT P8A (TSSIQSRALPSPPKFT)	0.01992
TSSIQSRPLPSPPKFT P8D (TSSIQSRDLPSPPKFT)	0.0302
TSSIQSRPLPSPPKFT P8E (TSSIQSRELPSPPKFT)	0.01785
TSSIQSRPLPSPPKFT P8F (TSSIQSRFLPSPPKFT)	0.002354
TSSIQSRPLPSPPKFT P8G (TSSIQSRGLPSPPKFT)	0.05758
TSSIQSRPLPSPPKFT P8H (TSSIQSRHLPSPPKFT)	0.02625
TSSIQSRPLPSPPKFT P8I (TSSIQSRILPSPPKFT)	0.1683
TSSIQSRPLPSPPKFT P8K (TSSIQSRKLPSPPKFT)	0.005237
TSSIQSRPLPSPPKFT P8L (TSSIQSRLLPSPPKFT)	0.02363
TSSIQSRPLPSPPKFT P8M (TSSIQSRMLPSPPKFT)	0.09866
TSSIQSRPLPSPPKFT P8N (TSSIQSRNLPSPPKFT)	0.04035
TSSIQSRPLPSPPKFT P8P	0.1354
TSSIQSRPLPSPPKFT P8Q (TSSIQSRQLPSPPKFT)	0.02961
TSSIQSRPLPSPPKFT P8R (TSSIQSRRLPSPPKFT)	0.02901
TSSIQSRPLPSPPKFT P8S (TSSIQSRSLPSPPKFT)	0.03937
